The values below are quoted from earlier work in US20140303128A1, “TRANSMUCOSAL HORMONE DELIVERY SYSTEM” (priority 2013, published 2014).

For the data set the following is noted: current transmucosal therapy (lollipop).

Some compounds may have been tested in ways that are not shown here.

For the molecule `CCC(=O)N(c1ccccc1)C1CCN(CCc2ccccc2)CC1`, the “time to reach maximum plasma concentrations” value is “over 20 minutes”.
